Experimental data taken from patent US10301320B2, “Compositions and methods of modulating 15-PGDH activity” (CASE WESTERN RESERVE UNIVERSITY, priority 2012, dated 2019).

Amino acid sequences for entries named in this document (tags omitted).
UniProt P15428, whole entry: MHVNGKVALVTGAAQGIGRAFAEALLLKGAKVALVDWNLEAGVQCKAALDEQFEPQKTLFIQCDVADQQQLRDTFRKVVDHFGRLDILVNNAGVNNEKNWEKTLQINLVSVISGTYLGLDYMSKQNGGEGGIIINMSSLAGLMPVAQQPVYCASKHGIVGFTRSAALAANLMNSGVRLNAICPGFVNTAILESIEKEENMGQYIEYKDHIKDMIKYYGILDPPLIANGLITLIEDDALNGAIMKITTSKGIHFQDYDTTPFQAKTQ

How the values were obtained:
[1] = target: 15-PGDH activity in colon cancer cell lines (Homo sapiens (Human), UniProt P15428); assay: Total 15-PGDH activity in compound treated cell lines (tritium transfer); assay type: cell-based; settings: […] for 48 hours (FIG. 10); FIG. 13 for SW124531
[2] = target: recombinant 15-PGDH protein (Homo sapiens (Human), UniProt P15428); assay: Melting temperature shift of recombinant 15-PGDH (SYPRO Orange); assay type: binding
[3] = tested on: 15-PGDH mRNA in colon cancer cell lines; assay: 15-PGDH mRNA levels by real-time PCR; settings: treated colon cancer cell lines
A549 cells = assay: PGE2 levels in medium of IL1-beta stimulated A549 cells; assay type: cell-based

Direct binding to recombinant 15-PGDH [2]: evidence of direct binding to 15-PGDH
SMILES: COc1ccc(-c2cc(C(F)(F)F)n3nc(C(=O)N4CCCCC4)cc3n2)cc1
Total 15-PGDH activity in treated cells [1]: increasing 15-PGDH activity in most cell lines
15-PGDH mRNA levels [3]: do not in general alter 15-PGDH mRNA levels
Effect on PGE2 levels in medium, in words (A549 cells): clear inhibition of 15-PGDH activity
